Tests used:
[1] = system: early stage breast cancer which have HER2 protein overexpression or HER2 gene amplification; details: adjuvant setting; cited from earlier work
[2] = system: early stage breast cancer with HER2 gene amplification/overexpression; assay: NSABP trial B-31 retrospective analysis: recurrence free survival by cMYC amplification status (FISH), chemotherapy vs chemotherapy plus Trastuzumab; format: in vivo; details: patients with no amplification of cMYC gene (N=945), HER2 amplified/overexpressing

Substance: Trastuzumab
- overall reduction in recurrence rate with Herceptin compared to chemotherapy alone [1]: about 50%
- reduction in recurrence rate when Trastuzumab was added to chemotherapy [2]: 34%
